High-throughput results as filed in PubChem BioAssay.
CDK5 p35 inh – CDK5/p35 (human) kinase inhibition; inhibition, % at 10 µM; Recombinant CDK5/p35, ADP-Glo luminescence, 60 min; 330,000 tested, 0.01% active; Q00535+Q15078;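 active means highest replicate inhibition of at least 50% and at least 75% of replicates reaching 50%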
Cneo AK release – causes C. neoformans cell lysis; 360,000 tested, 0.2% active; lysis activity, % at 15 µM; adenylate kinase release luminescence, 4 h; normalised: neutral wells 0, clomiphene wells 100;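 active means mean lysis activity across replicates of at least 80%, whatever share of replicates individually reach that level; inactive means mean lysis activity below 80%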
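Assay system: log-phase C. neoformans yeast / Quantity: yeast cell density of 5 × 10^6 cells/mL / Medium: fresh YPD growth medium / Compound: single dose / Timing: static 4 h at 37 °C with compound, 1 h detection / Measured by: adenylate kinase release luminescence / Read-out: lysis from increased AK signal / Benchmarks: Clomiphene as positive lysis control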
C2C12 statin – protects C2C12 myotubes from simvastatin toxicity; ATP luminescence, 48 h; scaled: DMSO 0, geranylgeraniol control 100; AID 602340; rescue of ATP level, % at 7.49 µM; 330,000 tested, 0.78% active;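 active means mean ATP rescue above about 67%, or every replicate alone reaching that limit, limit read from the data, passing the limit was not always enough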;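 further: myotubes were challenged with 10 µM simvastatin during compound exposure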
Rtt109 Vps75 – blocks Candida albicans Rtt109/Vps75 acetyltransferase activity. Q5AAJ8. purified Rtt109/Vps75, ThioGlo CoA-SH fluorescence, 4 h. inhibition, % at 34.9 µM. 330,000 tested, 0.16% active;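 active means inhibition of at least 50% in every replicate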
Yeast UUG start – alters start codon recognition fidelity in yeast; AID 602363; activity score, % at 18.7 µM; 350,000 tested, 0.13% active; S. cerevisiae UUG-firefly luciferase reporter, luminescence/redox ratio;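 active means replicate mean at a twofold rise or more, about +100% in these data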;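 further: firefly luciferase made from a UUG start codon reports start codon fidelity; reporter light over untreated wells divided by growth signal over untreated wells; some hits fall short of that in this replicate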
Large screens that a line does not name were inactive. Rows were chosen to be rich in hits. Some 1% of all compounds tested hit in one or more screens of this group.

CCn1cc(C(=O)NCc2cccc(F)c2)c(=O)c2cc(F)c(N3CCN(C(=O)c4ccco4)CC3)cc21	C2C12 statin 78.7
COC(=O)C1(C(=O)OC)NOC2C(=O)N(c3ccc(Cl)cc3Cl)C(=O)C21 (configuration not stated)	C2C12 statin 133.9
O/N=C\c1ccccc1Oc1ccc(F)cc1	none (no result: Cneo AK release, C2C12 statin, Yeast UUG start)
O/N=C/c1ccccc1Oc1ccccc1	C2C12 statin 85.9
CCC(/C=C1\Sc2ccc(OC)cc2N1CCO)=C\c1sc2ccc(OC)cc2[n+]1CCO	Rtt109 Vps75 114.3
O=c1cc(CN2CCN(Cc3ccccc3)CC2)c2cc3c(cc2o1)CCC3	C2C12 statin 114.6
CO[C@@H]1CN(C)C(=O)c2cc(NC(=O)c3cc(C)on3)ccc2OC[C@H](C)N(CC2CC2)C[C@H]1C	none (no result: CDK5 p35 inh, Rtt109 Vps75, Yeast UUG start)
CCOc1ccc(-c2nc3n(c(=O)c2C#N)CCCS3)cc1	C2C12 statin 103.0
COc1ccc(-c2nc3n(c(=O)c2C#N)CCCS3)cc1	none
Cc1c(C(=O)N2CCOCC2)oc2ccc(S(=O)(=O)N3CCCC3)cc12	C2C12 statin 121.0
CCOC(=O)N1CCN(C(=O)c2oc3ccc(S(=O)(=O)N4CCCCCC4)cc3c2C)CC1	none
CCOC(=O)N1CCN(C(=O)c2oc3ccc(S(=O)(=O)N4CCOCC4)cc3c2C)CC1	C2C12 statin 95.4
C[C@@H]1CCCCO[C@@H](CN(C)S(=O)(=O)c2cn(C)cn2)[C@@H](C)CN([C@H](C)CO)C(=O)c2cc(NC(=O)Nc3ccccc3)ccc2O1	none (no result: CDK5 p35 inh, C2C12 statin, Rtt109 Vps75)
Cc1cc(-c2nnc3n2N=C(c2ccc(-c4ccccc4)cc2)CS3)n[nH]1	none
c1ccc(-c2cc(-c3nnc4n3N=C(c3ccc5ccccc5c3)CS4)[nH]n2)cc1	C2C12 statin 80.3
c1ccc2c(CCNc3ncnc4nc[nH]c34)cccc2c1	C2C12 statin 85.8
COc1ccc(/C=C2\SC(=S)N(C(C)C(=O)NC3C=CS(=O)(=O)C3)C2=O)cc1 (configuration not stated)	none
COc1cccc(/C=C2\SC(=S)N(C(C)C(=O)NC3C=CS(=O)(=O)C3)C2=O)c1 (configuration not stated)	Rtt109 Vps75 154.1
CC(C)CCn1c(=O)c2ccccc2n2c(CN3C(=O)NC4(CCC(C)CC4)C3=O)nnc12 (configuration not stated)	C2C12 statin 93.0
CC(C)CCNC(=O)CN(C(=O)CCC(=O)Nc1ccccn1)c1ccc2c(c1)OCCO2	none
O=C(CN(C(=O)CCC(=O)Nc1ccccn1)c1ccc2c(c1)OCCO2)NCCc1ccccc1	C2C12 statin 99.7
O=C(CCN1CCCCC1)NCC[C@@H]1CC[C@@H](NC(=O)Cc2cccnc2)[C@@H](CO)O1	none (no result: CDK5 p35 inh, Rtt109 Vps75)
O=C(/C=C/c1cn(CC(O)CN2CCCCC2)c2ccccc12)c1ccccc1 (configuration not stated)	Rtt109 Vps75 53.0 (no result: Cneo AK release, C2C12 statin, Yeast UUG start)
C[C@H]1CN([C@@H](C)CO)C(=O)c2cccc(NS(=O)(=O)c3ccc(Cl)cc3)c2O[C@H]1CN(C)Cc1ccc(Cl)c(Cl)c1	none (no result: CDK5 p35 inh, Rtt109 Vps75)
COc1ccc(-n2cnc3cc(NCc4cccs4)ccc32)cc1	C2C12 statin 127.1
CC(C)CC#Cc1ccc2c(c1)O[C@@H](CN(C)C(=O)c1cccc(F)c1)[C@@H](C)CN([C@H](C)CO)S2(=O)=O	none (no result: CDK5 p35 inh, Rtt109 Vps75)
CCOC(=O)/C=C(\C)Nc1cc(C)nn1-c1ccccc1	C2C12 statin 127.0
Cc1cc(NC(=O)Nc2cc(C)nn2-c2ccccc2)n(-c2ccccc2)n1	none (no result: Rtt109 Vps75)
COc1ccc(Cl)cc1NS(=O)(=O)c1c(C)[nH]c(=O)[nH]c1=O	C2C12 statin 86.9
Cc1cc(C(=O)CSc2nnnn2-c2ccccc2)c(C)n1CCc1ccccc1	C2C12 statin 107.3
COc1ccc(CCn2c(C)cc(C(=O)CSc3nnnn3-c3ccccc3)c2C)cc1OC	none
COc1cc(CNCCO)cc(Br)c1OCc1cccs1	none (no result: Cneo AK release, C2C12 statin, Yeast UUG start)
CCOc1cc(CNCc2cccs2)cc(Br)c1OC	C2C12 statin 97.1
CCCNC(=O)N(C)C[C@@H]1Oc2ncc(C#CC3(O)CCCC3)cc2C(=O)N([C@H](C)CO)C[C@H]1C	none (no result: CDK5 p35 inh, Rtt109 Vps75)
Cc1ccsc1C1Nc2ccc3ncccc3c2C2=C1C(=O)CCC2 (configuration not stated)	C2C12 statin 78.6
CCC(=O)N(C)C[C@@H]1Oc2cc(C3=CCCCC3)ccc2S(=O)(=O)N([C@@H](C)CO)C[C@H]1C	none (no result: CDK5 p35 inh, Cneo AK release, Rtt109 Vps75, Yeast UUG start)
